Results from patent US8846567B2, “Active compound combinations having insecticidal and acaricidal properties” (priority 2009, dated 2014).

Tests used:
Myzus persicae = conditions: in vivo
From the text: (§1) The expected action for a given combination of two active compounds can be calculated according to S. R. Colby, Weeds 15 (1967), 20-22, as follows:
(§2) If the actual insecticidal or acaricidal kill rate exceeds the calculated value, the kill of the combination is superadditive, i.e. a synergistic effect is present. In this case, the actually observed kill rate must exceed the value calculated using the above formula for the expected kill rate (E).
(§3) • Solvents: 78 parts by weight of acetone 1.5 parts by weight of dimethylformamide • Emulsifier: 0.5 part by weight of alkylaryl polyglycol ether
(§4) To produce a suitable preparation of active compound, 1 part by weight of active compound is mixed with the stated amount of solvent and emulsifier, and the concentrate is diluted with emulsifier-containing water to the desired concentration.
Cabbage leaves (Brassica oleracea) which are heavily infested by the green peach aphid (Myzus persicae) are treated by spraying with the active compound preparation of the desired concentration.
After the desired period of time, the kill in % is determined 100% means that all of the aphids have been killed; 0% means that none of the aphids have been killed. The kill rates determined are entered into Colby's formula (see above).

Phaedon cochleariae = conditions: in vivo
From the text: as §1, §2, §3, §4
Cabbage leaves (Brassica oleracea) are treated by spraying with the active ingredient formulation of the desired concentration and populated with larvae of the mustard beetle (Phaedon cochleariae) while the leaves are still moist.
After the desired period of time, the kill in % is determined 100% means that all beetle larvae have been killed; 0% means that none of the beetle larvae have been killed. The kill rates determined are entered into Colby's formula (see above).

triazophos
0%: Kill in % after 6d (Myzus persicae) | Kill In % after 2d (Phaedon cochleariae) | Kill In % after 6d (Phaedon cochleariae)
